## AlphaSeq binding of Ab-14 light chain variants to a spike HR2 peptide

Reference: Li et al. 2023, doi:10.1038/s41467-023-39022-2. File: FLAb, binding data.

All variants were tested on one target, the spike HR2 peptide PDVDLGDISGINAS (SARS-CoV-2).

Parent scFv Ab-14: VH joined to VL by three GGGGS repeats. Changes lie in the light chain CDRs alone.
VH: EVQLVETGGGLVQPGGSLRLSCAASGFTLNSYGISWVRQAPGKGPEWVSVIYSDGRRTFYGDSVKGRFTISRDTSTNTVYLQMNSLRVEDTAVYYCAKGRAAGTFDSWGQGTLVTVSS
VL: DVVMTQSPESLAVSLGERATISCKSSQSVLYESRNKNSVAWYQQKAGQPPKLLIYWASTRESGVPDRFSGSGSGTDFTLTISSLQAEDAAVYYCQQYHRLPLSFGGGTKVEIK

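This is the validation round: designs drawn from the data on random variants, tested in the same kind of assay. Group labels follow the data file (Ctrl: baseline library sampled from a position-specific scoring matrix, with some repeated check sequences; En: ensemble of fine-tuned language models; GP: Gaussian process model; HC: hill climbing; Gen: genetic algorithm; Gibbs: Gibbs sampling; a sequence that several methods proposed may carry one label only). The assay is AlphaSeq: two haploid yeast populations carry antibody and antigen on their surface. Binding brings cells together so that they mate, and sequencing counts the barcode pairs among the diploids. Read counts were normalised to the haploid input and turned into Kd by a linear fit to BCL2-family pairs of known affinity, for each replicate. The assay was run in six technical replicates.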

The parent's light chain CDRs are KSSQSVLYESRNKNSVA, WASTRES, QQYHRLPLS; each variant's own CDRs replace them letter for letter.
The read-out is the apparent dissociation constant on a log10 scale (nM): the lower, the stronger.
Averages over replicates are reported, and they cover detected replicates only.
A pair that was not seen in any replicate is written "no signal"; this usually means weak binding, but a binder can also be missed.
The parent sequence was in this pool as ten entries: three were never detected, three once, and four in most replicates, with averages from 0.34 to 2.37.
Values of this round are not directly comparable with the first-round values of the same sequences.
Background: pairings of all light chain designs with three empty control strains gave a value in 4% of cases (median 2.64, 5th percentile 1.59). Values in that range, when seen in few replicates, are hard to tell from nonspecific mating.
The authors' rule: three or more of the six replicates give a measured affinity, fewer mean a poor binder.

"log10 Kd (nM), mean",replicates with signal,CDR-L1,CDR-L2,CDR-L3,group
0.75,6/6,KIGHGLTTEQRNKNSVA,QTETRVS,QHYHRLPLS,En_HC
0.38,6/6,KSSQSVLYESENKNSVA,AASTRES,QQYHRLPLS,Ctrl
1.57,6/6,KASKSVLYEGRNKNSVA,WASTRES,QQYHRLPLS,Ctrl
0.09,6/6,TLGQSTLMESRNKNNVA,QMSTREK,QQYHRLPLS,En_HC
0.71,6/6,KVQQSEWGLSRNKNSVA,NASKRES,QQYHRLPLS,GP_Gibbs
0.52,6/6,KQSFSGGGGSRNKNSVA,EASTRES,QQYHRLPLS,GP_Gibbs
-0.08,6/6,KLQQSMLYESRNVNSVA,DASKRES,QAYHRLPLS,GP_Gibbs
1.71,6/6,KLTISGTLTHEKAFSIA,NGTCKAY,QQYAHLPLS,En_Gibbs
2.07,5/6,KSSNSVLYESRNKNSVA,FASTRES,QQYHRLPLS,Ctrl
1.55,6/6,IIDAIMFHGNKRASSIA,QASERVN,QQYHHLPLT,En_Gen
-0.31,6/6,KLSQSVLYESRNKNSVA,NGSTREQ,QQYHRLPLS,GP_Gen
-0.12,6/6,GIQSQMVGTSAVKENIA,NEAERLE,QQYQRLPLT,En_Gibbs
0.41,6/6,TLAQPQKELGYAKDAIA,DGSIRLG,QQYHRLPLV,En_Gibbs
3.46,1/6,KMWDNEYDTAAMNHSIA,NDSLERD,QQYDRLPLA,En_Gibbs
0.17,6/6,KFSYGNLYEDRNQNSVA,NASQREQ,QQYHRLPLS,GP_Gibbs
0.74,6/6,TISQSAQMESHNKNSVA,DLNVRGN,QQYDRLPLS,En_HC
1.10,6/6,QVQAIHEHEKDQNQAMA,EASMRDA,QQYERLPLS,En_Gibbs
no signal,0/6,HISNMQAYGYSATNSVA,DNENKLN,QQYIRLPLT,En_Gibbs
0.90,6/6,KSRQSVLYGSRNKNSVA,WASTRES,QQYHRLPLS,Ctrl
-0.16,6/6,KLSQQGLYGSRNANSVA,NASTREQ,QQYHRLPLS,GP_Gibbs
1.75,1/6,KSSQSVVYESRNKNSVA,EASERES,QQYHRLPLS,Ctrl
1.63,6/6,KIEISNSWSLRGTRAIA,QASTRAH,QQYHRLPLT,En_Gibbs
1.62,6/6,SMRAVGCDMQRNHSAIA,DATQIED,QQYVMLPLS,En_Gibbs
0.89,6/6,KMSQSKLVESRNKNSVA,KASTRES,QQYHRLPLS,Ctrl
1.33,6/6,MISQLMNAGQFAINSVA,QASIRNS,QQYDRLPLM,En_Gen
1.05,6/6,TIDDEEPSRGLKWNSIA,GVATRLQ,QQYHRLPLI,En_Gibbs
1.55,6/6,KSSQSWLYESVNVNSVA,WASHRES,QQYHSLPLS,Ctrl
1.69,4/6,MISQLMNMGQFAINSVA,QASIRNA,QQYDRLPLI,En_Gen
2.24,5/6,KSSKSVLYESENKNSVA,WASTRES,QQYHRLPLS,Ctrl
1.69,6/6,MISQLYNMGQFAINSVA,QAETRCN,QQYDRLPLM,En_Gen
-0.23,6/6,KYQQLEPYESRNKNSVA,NASTREE,QQYHRLPLS,GP_Gibbs
1.57,3/6,KISFSVLYESLNKNSVA,WASTREP,QQYHRLPLY,Ctrl
-0.06,6/6,KLSQLMLYESRNKNSVA,EASTRLS,QDYHRLPLS,GP_Gibbs
-0.17,6/6,KLVQSTLYESRNKNSVA,NASTRES,QQYHRLPLS,GP_HC
-0.23,6/6,KVSWSVLYESRNKNSVA,DASTRES,QQYHRLPLS,GP_HC
0.04,6/6,NLTTGYRQGALNTDNVA,HGNMRCA,QQYYRLPLS,En_Gibbs
0.29,6/6,KLSQSVLYESRNKNSVA,NASTRMS,QAYHRLPLS,GP_Gen
-0.04,6/6,KLSQSVEYESRLKNSVA,NASQRLE,QQYHRLPLS,GP_Gibbs
0.56,6/6,KIGGVTNGISRNKNSVA,EQSTRED,QQYNRLPLF,En_HC
0.06,6/6,KSSISQLYESRNKNSVA,EASTREQ,QQYHRLPLS,GP_HC
0.88,6/6,KLSMITGHMQVEKNNVA,EMETREN,QQYDRLPLS,En_Gen
1.74,6/6,KSDQSELAESRNKNSVA,WASCRES,QQYHRLPLS,Ctrl
0.17,6/6,KVSGSQLYESRNSNSVA,NASNRES,QQYHRLPLS,GP_Gibbs
0.65,6/6,HSSQSVLYENRNKDSVA,GASTRES,QQYHRLPLS,Ctrl
1.72,6/6,KLRLHNLMFYEQENSIA,GVSNRAY,QQYYRLPLN,En_Gibbs
no signal,0/6,KSSQSVLQESRNKNSVA,WASTRES,QQYHRLPPS,Ctrl
-0.42,6/6,KLEQSHLYESRNKNSVA,NASQRES,QQYHRLPLS,GP_Gen
-0.11,6/6,KFSQSDLYESRNKNSVA,EASQRES,QQYHRLPLS,GP_Gen
1.59,6/6,KSSQSVLYESLNHNSVA,WASTRES,QQYHRLPLS,Ctrl
-0.50,6/6,KLSQSNLYESRNKNSVA,NASTREQ,QQYHRLPLS,GP_Gen
-0.11,6/6,KLEQSKHYESRNKNSVA,NASTRES,QQYHRLPLS,GP_HC
0.65,6/6,KLEQSTSYESRNCNSVA,NASVRES,QQYHRLPLS,GP_Gibbs
1.10,6/6,MFSQLIYTGSRARNAVA,QAETRVN,QQYHHLPLI,En_HC
-0.12,6/6,KLSQSVLYEERNKNNVA,QASTRES,QQYHRLPLS,GP_Gen
0.39,6/6,ALSQSMDMTSRNKNSVA,DLSVREN,QQYHRLPLS,En_HC
0.35,6/6,KLEQSENYESRNKNSVA,NASTRES,QQYHRLPLS,GP_HC
0.95,6/6,SLDNLTNEQNAYGSNIA,NADVLVY,QQYYRLPIV,En_Gibbs
-0.26,6/6,KFSQSWLYESRNKNSVA,NASQRLS,QQYHRLPLS,GP_Gen
0.17,6/6,KSSQSVLYESRNKNSVA,DSSTRES,QQYHRLPLS,Ctrl
0.83,6/6,HLSLPWQLGHDSTNAVA,NMSTLMT,QQYSRLPLS,En_Gibbs
-0.19,6/6,KLQQSVLYESRNKNSVA,NASERES,QQYHRLPLS,GP_Gen
1.30,6/6,KSSQSVLYEDRNKNSVA,SASTRIS,QQYHGLPLS,Ctrl
0.30,6/6,KLEQSICYESRNKNSVA,NASTRES,QQYHRLPLS,GP_HC
-0.21,6/6,KMSQSTLYESRNKNSVA,AASTRES,QQYHRLPLS,Ctrl
0.27,6/6,KCYQSQDYESRNKNAVA,NASQRED,QQYHRLPLS,GP_Gibbs
0.79,4/6,KLSQSVLTESSNKNSVA,WASTRES,QQYHRLPLS,Ctrl
0.48,6/6,TLYGLSNSMSKNKNNVA,EMTTREK,QQYDRLPLV,En_Gen
0.28,6/6,RLQIDDNGYIGMRNNVA,DGGMVRM,QQYARLPLM,En_Gibbs
1.03,6/6,KLSQSMLYESRNKNNVA,EAHQRES,QMYHRLPLS,GP_Gibbs
0.43,6/6,KSLQSVLYESRNKNSVA,GASTRED,QLYHRLPLS,GP_HC
-0.02,6/6,QIEWHNSGLLEAKNSVA,GVEHRMN,QQYMRLPLE,En_Gibbs
-0.39,6/6,KVSQSWLYESRMKNSVA,NASTRES,QQYHRLPLS,GP_Gen

The 11 strongest on average among those seen in every replicate, once more:

{"CDR-L1": "KLSQSNLYESRNKNSVA", "CDR-L2": "NASTREQ", "CDR-L3": "QQYHRLPLS", "group": "GP_Gen", "log10 Kd (nM), mean": "-0.50", "replicates with signal": "6/6"}
{"CDR-L1": "KLEQSHLYESRNKNSVA", "CDR-L2": "NASQRES", "CDR-L3": "QQYHRLPLS", "group": "GP_Gen", "log10 Kd (nM), mean": "-0.42", "replicates with signal": "6/6"}
{"CDR-L1": "KVSQSWLYESRMKNSVA", "CDR-L2": "NASTRES", "CDR-L3": "QQYHRLPLS", "group": "GP_Gen", "log10 Kd (nM), mean": "-0.39", "replicates with signal": "6/6"}
{"CDR-L1": "KLSQSVLYESRNKNSVA", "CDR-L2": "NGSTREQ", "CDR-L3": "QQYHRLPLS", "group": "GP_Gen", "log10 Kd (nM), mean": "-0.31", "replicates with signal": "6/6"}
{"CDR-L1": "KFSQSWLYESRNKNSVA", "CDR-L2": "NASQRLS", "CDR-L3": "QQYHRLPLS", "group": "GP_Gen", "log10 Kd (nM), mean": "-0.26", "replicates with signal": "6/6"}
{"CDR-L1": "KYQQLEPYESRNKNSVA", "CDR-L2": "NASTREE", "CDR-L3": "QQYHRLPLS", "group": "GP_Gibbs", "log10 Kd (nM), mean": "-0.23", "replicates with signal": "6/6"}
{"CDR-L1": "KVSWSVLYESRNKNSVA", "CDR-L2": "DASTRES", "CDR-L3": "QQYHRLPLS", "group": "GP_HC", "log10 Kd (nM), mean": "-0.23", "replicates with signal": "6/6"}
{"CDR-L1": "KMSQSTLYESRNKNSVA", "CDR-L2": "AASTRES", "CDR-L3": "QQYHRLPLS", "group": "Ctrl", "log10 Kd (nM), mean": "-0.21", "replicates with signal": "6/6"}
{"CDR-L1": "KLQQSVLYESRNKNSVA", "CDR-L2": "NASERES", "CDR-L3": "QQYHRLPLS", "group": "GP_Gen", "log10 Kd (nM), mean": "-0.19", "replicates with signal": "6/6"}
{"CDR-L1": "KLVQSTLYESRNKNSVA", "CDR-L2": "NASTRES", "CDR-L3": "QQYHRLPLS", "group": "GP_HC", "log10 Kd (nM), mean": "-0.17", "replicates with signal": "6/6"}
{"CDR-L1": "KLSQQGLYGSRNANSVA", "CDR-L2": "NASTREQ", "CDR-L3": "QQYHRLPLS", "group": "GP_Gibbs", "log10 Kd (nM), mean": "-0.16", "replicates with signal": "6/6"}